## Apparent affinities of Ab-91 variants for a coronavirus HR2 peptide

Source: Engelhart et al. 2022 (doi:10.1038/s41597-022-01779-4), MIT Lincoln Laboratory and A-Alpha Bio; data file from the FLAb repository.

Binding partner: SARS-CoV-2 spike HR2 peptide, sequence PDVDLGDISGINAS.

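The starting antibody came from a phage panning campaign against this peptide. Variants in AAYL51 differ from the parent at up to three CDR positions; double and triple changes were sampled at random. The scFvs were displayed on barcoded MATa yeast, the peptide on MATalpha yeast. After mating in shaken culture at 30 °C for 16 h, diploids were selected and their barcode pairs sequenced. Scores were corrected for input abundance and mapped to Kd with protein pairs of known affinity run in the same pool. Each pool was mated in three replicate cultures.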

Ab-91 is the parent antibody, in scFv form: VL, then three GGGGS repeats, then VH. The light chain is unchanged in all variants.
VL: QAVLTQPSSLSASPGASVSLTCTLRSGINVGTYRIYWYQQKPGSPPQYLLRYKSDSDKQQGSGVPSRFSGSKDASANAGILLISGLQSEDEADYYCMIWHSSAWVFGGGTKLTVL
VH: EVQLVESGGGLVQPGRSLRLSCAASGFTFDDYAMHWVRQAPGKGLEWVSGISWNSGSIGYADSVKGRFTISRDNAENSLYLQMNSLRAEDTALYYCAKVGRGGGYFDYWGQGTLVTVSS

Positions count from residue 1 of the parent VH; G26V puts V in place of G. The read-out is the apparent dissociation constant on a log10 scale (nM): the lower, the stronger. A mean of the replicates is given; it leaves out those without a signal. "not detected" marks a missing value. The strain was present, yet no cells mated with the target were sequenced in any replicate, which points to weak or no binding. For reference, the parent read 1.86 as the reference entry and 0.88 as a member of this library. As a blank, each scFv also met three strains without target: over library AAYL51, 21% of these pairings were detected, typically at 4.54 and seldom below 3.26.

changes | mean log10 Kd (nM) | seen in
G26V+F27A+D107L | not detected | 0 of 3
A33S+G102R+Y105N | 3.65 | 1 of 3
F27W+D31F+D107C | not detected | 0 of 3
I51R+V99H+D107K | not detected | 0 of 3
W53H+G59H+V99H | 4.91 | 3 of 3
I51H+Y60P+R101W | not detected | 0 of 3
G50W+K65S+G102R | 4.66 | 3 of 3
D30T+I51E+G102D | 4.33 | 1 of 3
G26F+S63E+Y108I | 2.09 | 3 of 3
Y60R+G103N | 5.09 | 1 of 3
F27A+S63G+D107L | 4.76 | 2 of 3
F27H+Y108F | 5.17 | 1 of 3
D31S+V64R+D107C | not detected | 0 of 3
G26K+N54E+V99K | 4.59 | 2 of 3
H35S+S52Q+D62Q | not detected | 0 of 3
H35L+G100W+G104Y | 3.26 | 1 of 3
D62N+S63Q+Y105R | 6.00 | 1 of 3
Y32R+Y60M+D107H | not detected | 0 of 3
F29N+H35S+S57W | 4.00 | 1 of 3
T28W+Y60D+F106P | 4.79 | 2 of 3
N54R+G56I+G102H | not detected | 0 of 3
D31A+S55P+V64H | not detected | 0 of 3
A33V+M34G+Y105S | 5.60 | 1 of 3
F29P+G59Q+F106S | not detected | 0 of 3
F29G+G100E | not detected | 0 of 3
Y32G+M34E | 5.32 | 3 of 3
S55L+I58K+V64Y | not detected | 0 of 3
A33K+G59A+G103C | not detected | 0 of 3

The remaining entries, values ahead:

mean log10 Kd (nM) | seen in | changes
4.92 | 2 of 3 | S52W+A61D+K65S
4.68 | 2 of 3 | M34T+S55Q+A61S
3.69 | 3 of 3 | S57V+K65G+G100A
4.40 | 1 of 3 | T28F+D107L
4.00 | 2 of 3 | D31C+G104A+D107R
3.15 | 1 of 3 | F27T+Y32P+V64C
not detected | 0 of 3 | A33C+G59D+K65D
5.59 | 1 of 3 | D31Y+D62M+Y108I
2.70 | 3 of 3 | W53S+D62T+S63T
2.26 | 3 of 3 | S55K+G100V+G103K
not detected | 0 of 3 | H35N+I58Y+R101K
5.12 | 3 of 3 | G50E+G59K+G104V
3.45 | 3 of 3 | D30W+D31N+S57I
not detected | 0 of 3 | A33R+M34I+N54W
2.78 | 3 of 3 | G56H+A61V+Y105G
not detected | 0 of 3 | D30R+M34N+R101T
4.10 | 2 of 3 | D62S+V64E+V99Y
4.80 | 3 of 3 | D31W+H35P+W53K
not detected | 0 of 3 | D30H+G50D+G100D
4.50 | 2 of 3 | D31G+Y60S+D62H
not detected | 0 of 3 | N54S+D62I+G104T
4.23 | 2 of 3 | Y60A+G100Q+F106P
not detected | 0 of 3 | W53T+G103D+G104A
not detected | 0 of 3 | F27A+I51A+I58N
not detected | 0 of 3 | S55M+Y60H+F106I
not detected | 0 of 3 | Y32M+S52D+D62W
4.78 | 1 of 3 | I51E+S55M+G102P
3.76 | 1 of 3 | M34Q+V99G+Y105F
4.84 | 1 of 3 | G26T+A33G+S55E

For reference, 5 entries of the list once more:

changes,mean log10 Kd (nM),seen in
D62S+V64E+V99Y,4.10,2 of 3
T28W+Y60D+F106P,4.79,2 of 3
D31Y+D62M+Y108I,5.59,1 of 3
G26V+F27A+D107L,not detected,0 of 3
Y60A+G100Q+F106P,4.23,2 of 3